Laboratory results from patent publication US20220251194A1.

Amino acid sequences for entries named in this document (tags omitted). Residues count along the entry.
UniProt Q15116, 25-167: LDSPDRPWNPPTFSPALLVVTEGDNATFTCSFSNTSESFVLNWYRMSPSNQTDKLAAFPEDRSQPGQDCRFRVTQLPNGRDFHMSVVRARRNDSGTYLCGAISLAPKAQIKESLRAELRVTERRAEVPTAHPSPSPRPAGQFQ

Target: Human PD1 (50AFR), [VEGF leader]-Sino-Bio-PD-1_H-[His9G] (human) (UniProt Q15116)
Experiment: SPR (Biacore T200 or 4000), antibody captured via anti-human Fc, antigen as analyte

Kd: 1.4 nM
Substance: Keytruda (25ADU) (antibody)
